Test results from ChEMBL document CHEMBL1138481, “Compounds binding to the S2-S3 pockets of thrombin” (J Med Chem, 2009).

Assay: Inhibition of human alpha thrombin by chromogenic substrate enzyme assay

N=C(N)c1ccc(CNC(=O)[C@@H]2CCN2C(=O)[C@H](NCC(=O)O)C2CCCCC2)cc1 [MELAGATRAN]
IC50: 8 nM
